Patent US8895503B2, “Pharmaceutical composition for transnasal administration of peptide hormones or cytokines” (Toray Industries, Inc., priority 2008, dated 2014)

Test: Nasal administration of fluorescently-labeled dextran FD-4 (Example 3)
Details: male, SD, rat, in vivo
Experimental: A fluorescently-labeled dextran FD-4 (Molecular probes, Inc.) was diluted with PBS to provide a 4 mg/ml solution. Using 40 μl of this solution, the evaluation was carried out in the same manner as in Example 1. The FD concentration in blood was quantified by fluorometry. The bioavailability was calculated by comparison with the case where the same amount of FD-4 was intravenously administered.

- bioavailability of FD-4: 36%
Structure (SMILES): CC[C@@H](C)[C@@H](NC(=O)[C@@H](CCCCN)NC(=O)[C@H](NC(=O)[C@@H](CCC(N)=O)NC(=O)[C@H](N)CCCNC(=N)N)[C@H](C)CC)C(=O)N[C@H](Cc1c[nH]c2ccccc12)C(=O)N[C@H](Cc1ccccc1)C(=O)N[C@H](CCC(N)=O)C(=O)N[C@H](CC(N)=O)C(=O)N[C@H](CCCNC(=N)N)C(=O)N[C@H](CCCNC(=N)N)C(=O)N[C@H](CCSC)C(=O)N[C@H](CCCCN)C(=O)N[C@H](Cc1c[nH]c2ccccc12)C(=O)N[C@H](CCCCN)C(=O)N[C@H](CCCCN)C(=O)O [D-penetratin]
